Laboratory results as given in PMC3152598 (Biochemical pharmacology, 2011).

Chains of the proteins cited; added tags and fusions are not shown.
UniProt P0DMS8, whole entry: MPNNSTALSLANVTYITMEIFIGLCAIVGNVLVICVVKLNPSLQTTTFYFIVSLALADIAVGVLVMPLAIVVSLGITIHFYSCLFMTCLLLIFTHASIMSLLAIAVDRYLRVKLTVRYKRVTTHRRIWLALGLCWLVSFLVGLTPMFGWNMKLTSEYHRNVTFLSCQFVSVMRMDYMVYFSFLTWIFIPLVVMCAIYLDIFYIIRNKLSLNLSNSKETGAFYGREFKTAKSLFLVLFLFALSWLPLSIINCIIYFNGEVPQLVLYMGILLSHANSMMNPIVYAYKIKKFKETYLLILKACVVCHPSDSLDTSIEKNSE

Experiments:
Conditions in all cases: agonist alone; normalized to NECA = 100%
human A3 AR [1] = target: T1, human A3 AR (Homo sapiens, UniProt P0DMS8)
human A3 AR [2] = target: T1, human A3 AR; experiment: Membrane hyperpolarization
human A3 AR [3] = target: T1, human A3 AR; experiment: Cyclic AMP accumulation assay
human A3 AR [4] = target: T1, human A3 AR; remark: listed apart in the source

CCNC(=O)[C@H]1O[C@@H](n2cnc3c(N)ncnc32)[C@H](O)[C@@H]1O [NECA, adenosine-5′-N-ethyluronamide, reference compound]
100%: β-arrestin2 Emax (human A3 AR [1]) | hyperpolarization Emax (human A3 AR [2]) | cyclic AMP Emax (human A3 AR [3]) | Ca2+ Emax (human A3 AR [4])
